Assay results published in BindingDB's records for doi:10.1046/j.1471-4159.1997.69051810.x (Janssen Research Foundation, 1997).

Chains of the proteins cited; added tags and fusions are not shown. Lines headed by an entry give the natural chain unless they say otherwise; changes in a name come on top.
UniProt Q62758: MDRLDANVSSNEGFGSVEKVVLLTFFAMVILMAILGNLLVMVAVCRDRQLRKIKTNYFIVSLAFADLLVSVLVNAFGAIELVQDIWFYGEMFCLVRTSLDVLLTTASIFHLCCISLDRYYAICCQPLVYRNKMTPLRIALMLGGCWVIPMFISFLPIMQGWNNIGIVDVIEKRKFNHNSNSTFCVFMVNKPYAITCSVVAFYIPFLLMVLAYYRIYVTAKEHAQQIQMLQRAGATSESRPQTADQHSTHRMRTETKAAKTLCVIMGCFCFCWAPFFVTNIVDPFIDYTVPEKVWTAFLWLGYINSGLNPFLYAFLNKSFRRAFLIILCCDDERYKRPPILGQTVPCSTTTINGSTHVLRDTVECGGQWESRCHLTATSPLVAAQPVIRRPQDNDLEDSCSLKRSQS

Molecular target: 5-hydroxytryptamine receptor 4 (Rattus norvegicus, UniProt Q62758)

NCCc1c[nH]c2ccc(O)cc12 [[3H]-5-HT]
Ki: 158 nM
